Earlier results, collected in patent US20230330042A1 (published 2023).

Amino acid sequences for entries named in this document (tags omitted). A change or cut given only in a name is not applied to a line headed by its entry.
UniProt P35372, whole entry, species assumed: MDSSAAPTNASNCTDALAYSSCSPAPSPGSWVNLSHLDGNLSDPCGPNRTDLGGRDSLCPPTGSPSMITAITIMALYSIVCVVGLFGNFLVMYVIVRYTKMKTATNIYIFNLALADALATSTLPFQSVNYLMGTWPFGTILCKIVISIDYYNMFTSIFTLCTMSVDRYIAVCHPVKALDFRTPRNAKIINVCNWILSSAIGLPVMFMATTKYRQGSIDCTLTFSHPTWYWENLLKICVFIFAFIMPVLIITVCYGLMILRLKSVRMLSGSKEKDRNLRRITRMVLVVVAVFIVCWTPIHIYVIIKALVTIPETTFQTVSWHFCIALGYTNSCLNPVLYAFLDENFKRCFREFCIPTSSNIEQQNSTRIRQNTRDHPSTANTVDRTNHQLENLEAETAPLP
UniProt P41145: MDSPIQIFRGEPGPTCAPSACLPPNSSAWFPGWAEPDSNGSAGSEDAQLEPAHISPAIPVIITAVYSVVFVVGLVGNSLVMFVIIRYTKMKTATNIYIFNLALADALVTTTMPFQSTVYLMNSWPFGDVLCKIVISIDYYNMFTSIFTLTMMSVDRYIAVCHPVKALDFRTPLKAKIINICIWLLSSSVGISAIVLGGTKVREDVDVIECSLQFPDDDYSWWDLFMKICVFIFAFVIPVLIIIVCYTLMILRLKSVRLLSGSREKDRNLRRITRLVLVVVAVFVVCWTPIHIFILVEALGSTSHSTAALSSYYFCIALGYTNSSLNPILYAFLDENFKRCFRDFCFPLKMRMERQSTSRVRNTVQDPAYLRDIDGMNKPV

Columns and labels:
[1] = target: μ-opioid receptor (Homo sapiens, UniProt P35372); conditions: read-out: Ki μ
[2] = target: κ-opioid receptor (Homo sapiens, UniProt P41145); conditions: read-out: Ki κ

| SMILES | Ki [1] | Ki [2] |
| --- | --- | --- |
| CN(C)CC1CCCCC1(O)c1cccc(O)c1 (racemic) [(±)-M1, O-desmethyltramadol] | 12.1 nM | – |
| CN(C)CC1CCCCC1(O)c1cccc(O)c1 (single isomer, unassigned; (+)) [(+)-M1] | 6.02 nM | – |
| CN(C)CC1CCCCC1(O)c1cccc(O)c1 (single isomer, unassigned; (-)) [(−)-M1] | 428 nM | – |
| COc1ccc2c3c1O[C@H]1[C@@H](O)C=C[C@H]4[C@@H](C2)N(C)CC[C@@]341 [Codeine] | – | 5970 nM |
